Experimental data from patent publication US20250049928A1, “ANESTHETIC PRODRUGS AND DERIVATIVES THEREOF FOR PROLONGED SENSORY SELECTIVE NERVE BLOCKAGE” (The Board of Trustees of The University of Alabama, priority 2023, published 2025).

Assays:
[1] = system: Esterase (from porcine liver); conditions: pig
[2] = system: rats; conditions: rat, in vivo
[3] = system: sciatic nerve; conditions: rat, not told
[4] = system: sciatic nerves and surrounding tissues; conditions: rat, in vivo

“glycine-capsaicin prodrug [Gly-CAP prodrug]” was tested, and the Half-lives [1] was under 10 min, the “rats exhibiting irreversible nerve blockade” value [2] was “one rat” and the “rats that developed contralateral nociceptive axon block” value [2] was 2 rats. The “rats that experienced a seizure” value [2] was 1 in 4 rats.
For “poly (ethylene glycol)750-fluorescein [PEG750-FL]”, the “fluorescence distribution / permeation into the sciatic nerve” value [3] was “weak fluorescent signals”.
“glucuronic acid-linked bupivacaine [GluA-Bup]” was tested, and the “appearance of surrounding tissues” value [4] was “no signs of edema or discoloration” and the “microscopic examination for myotoxicity or inflammation” value [4] was “did not reveal any significant myotoxicity or inflammatory responses”.
